Reference: PubChem BioAssay (EPA / NIEHS)
Only a part is listed here, and it is no random draw. The source made the active and inactive calls. How the source made its calls: active means hit-call score of the fitted dose curve at least 0.9, where 1 is the maximum; inactive means score below 0.9.

assay: ATG_PPRE_CIS: Attagene CIS-FACTORIAL HepG2 Assay for human Peroxisome Proliferator-activated Response Element (PPRE) (AID 2282958); conditions: HepG2 PPRE cis-element reporter, Attagene transcription factor profiling; actives raise or lower the signal

outcome, inactive:
CCCCOCCOCCO
CCOC(=O)CC(O)(CC(=O)OCC)C(=O)OCC
CC1CCC2CC1C2(C)C (centres undefined)
CCCCCCCCCCCCOCCO
CCCCCC=CCC(=O)OC
CC[C@H]1OC(=O)[C@H](C)[C@@H](O[C@H]2C[C@@](C)(OC)[C@@H](O)[C@H](C)O2)[C@H](C)[C@@H](O[C@@H]2O[C@H](C)C[C@H](N(C)C)[C@H]2O)[C@](C)(O)C[C@@H](C)C(=O)[C@H](C)[C@@H](O)[C@]1(C)O
CC[N+](CC)(CC(=O)Nc1c(C)cccc1C)Cc1ccccc1
N#Cc1cscn1
CC1=NC(C)OC1C (centres undefined)
S=C(S)NCCNC(=S)S
CC1(C)C(=O)N(Cl)C(=O)N1Cl
CC(C)CCOCc1ccccc1
F[B-](F)(F)F
CCCCC(CC)CCC(CC(C)C)OS(=O)(=O)O (centres undefined)
c1ccc2c(c1)Cc1ccccc1-2
C=CC(=O)NC(C)(C)C
CC(C)OCCO
CCCCOC(=O)COc1ccc(Cl)cc1Cl
C=C1C[C@H]2[C@@H]3C=C(C)C4=CC(=O)CC[C@]4(C)[C@H]3CC[C@]2(C)[C@@]1(OC(C)=O)C(C)=O
CC[N+](C)(CC)CC
CCCCCCOc1ccc(N)cc1
CCCC(CC)c1ccccc1 (centres undefined)
O=Cc1ccc(CO)o1
CCOC(=O)c1ccccc1C
CC(C)=CCC/C(C)=C\C#N
c1ccc(Cc2ccccc2)cc1
CCCCCCCO
Fc1ccc(Br)cc1
CC(CCO)CC(C)(C)C (centres undefined)
OC[C@H]1O[C@@H]2O[C@H]3[C@H](O)[C@@H](O)[C@@H](O[C@H]4[C@H](O)[C@@H](O)[C@@H](O[C@H]5[C@H](O)[C@@H](O)[C@@H](O[C@H]6[C@H](O)[C@@H](O)[C@@H](O[C@H]7[C@H](O)[C@@H](O)[C@@H](O[C@H]1[C@H](O)[C@H]2O)O[C@@H]7CO)O[C@@H]6CO)O[C@@H]5CO)O[C@@H]4CO)O[C@@H]3CO
O=C1OC(=O)c2cc(Oc3ccc4c(c3)C(=O)OC4=O)ccc21
CC(CN1c2ccccc2Sc2ccccc21)N(C)C (centres undefined)
CN(Cc1cnc2nc(N)nc(N)c2n1)c1ccc(C(=O)N[C@@H](CCC(=O)O)C(=O)O)cc1
CC1=NN(c2cc(Cl)c(S(=O)(=O)O)cc2Cl)C(=O)C1N=Nc1ccc(S(=O)(=O)O)cc1 (centres undefined)
CCCCOCCOC(=O)COc1ccc(Cl)cc1Cl
COc1ccc([C@@H]2CC(=O)c3c(O)cc(O[C@@H]4O[C@H](CO[C@@H]5O[C@@H](C)[C@H](O)[C@@H](O)[C@H]5O)[C@@H](O)[C@H](O)[C@H]4O)cc3O2)cc1OC
CC(C)(C#N)c1cc(Cn2cncn2)cc(C(C)(C)C#N)c1

AC50, active:
C=CCOC(=O)c1ccccc1C(=O)OCC=C 26.5 µM
CC(C)c1ccc2cc(C(C)C)ccc2c1 73.3 µM
